Measured values reported in patent US20060040951A1, “Use of 5-ht2 receptor antagonists for the treatment of sleep disorders” (Merck Patent GmbH, priority 2002, published 2006).

Test system: rats
Assay: Brain-wave (EEG) recording of rats over 6 hours during the dark phase
Assay type: in vivo, rat
Conditions: 6 h dark phase
Procedure: The comparative substance triazolam, by contrast, extends non-REM sleep by 2 min/h at a dose of 0.1 mg/kg and by 6.5 min/h at a dose of 0.4 mg/kg, which corresponds to the maximum effect in triazolam.
Under the same conditions, zolpidem extends non-REM sleep by 5 min/h at 5 mg/kg and by 7 min/h at 10 mg/kg.
However, there is an important difference between the compound according to the invention and the reference sleeping drugs with respect to their action on REM sleep. The standard sleeping drugs shorten this stage of sleep: triazolam (0.1-1.6 mg/kg) by 0.3 to 2.1 min/h, zolpidem (5-10 mg/kg) and zopiclon (2.5-5 mg/kg) by 0.3 to 1.6 min/h (the values relate to recording on rats for 6 hours during the dark phase). […] (3-Cyano-1H-indol-7-yl)-[4-(4-fluorophenethyl)piperazin-1-yl]-methanone, by contrast, extends REM sleep by an average of 0.8 min/h and with a maximum of 2 min/h.

| SMILES | extension of non-REM sleep (compared with zolpidem) (2.5-5 mg/kg) | what the change in REM sleep results from | extension of non-REM sleep (dose 5 mg/kg) [min/h] | extension of non-REM sleep (dose 10 mg/kg) [min/h] |
| --- | --- | --- | --- | --- |
| CN1CCN(C(=O)OC2c3nccnc3C(=O)N2c2ccc(Cl)cn2)CC1 (centres unmarked) [Zoplicon, zopiclon] | comparable effect | reduction in the number of these phases |  |  |
| Cc1ccc(-c2nc3ccc(C)cn3c2CC(=O)N(C)C)cc1 [zolpidem] |  | reduction in the number of these phases | 5 | 7 |
